Experiments:
Format in all cases: biochemical
Conditions in all cases: 10µM
ABL1 = target: T1, ABL1 (Homo sapiens, UniProt P00519)
T1 construct: purchased Reaction Biology Corporation

Amino acid sequences for entries named in this document (tags omitted). A change or cut given only in a name is not applied to a line headed by its entry. Residues count along the entry.
UniProt O94921: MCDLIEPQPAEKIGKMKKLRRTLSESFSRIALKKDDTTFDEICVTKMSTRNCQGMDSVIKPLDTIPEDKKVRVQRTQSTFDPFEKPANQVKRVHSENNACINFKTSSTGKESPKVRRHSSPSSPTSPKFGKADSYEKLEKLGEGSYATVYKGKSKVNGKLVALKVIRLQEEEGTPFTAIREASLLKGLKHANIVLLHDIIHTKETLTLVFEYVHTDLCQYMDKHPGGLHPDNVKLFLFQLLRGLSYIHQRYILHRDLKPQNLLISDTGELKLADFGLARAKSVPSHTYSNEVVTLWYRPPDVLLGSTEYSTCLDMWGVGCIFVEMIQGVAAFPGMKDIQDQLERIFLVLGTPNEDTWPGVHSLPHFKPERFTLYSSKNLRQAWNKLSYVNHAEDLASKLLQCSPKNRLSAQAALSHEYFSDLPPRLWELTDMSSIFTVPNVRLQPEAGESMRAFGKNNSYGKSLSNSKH
UniProt P53355: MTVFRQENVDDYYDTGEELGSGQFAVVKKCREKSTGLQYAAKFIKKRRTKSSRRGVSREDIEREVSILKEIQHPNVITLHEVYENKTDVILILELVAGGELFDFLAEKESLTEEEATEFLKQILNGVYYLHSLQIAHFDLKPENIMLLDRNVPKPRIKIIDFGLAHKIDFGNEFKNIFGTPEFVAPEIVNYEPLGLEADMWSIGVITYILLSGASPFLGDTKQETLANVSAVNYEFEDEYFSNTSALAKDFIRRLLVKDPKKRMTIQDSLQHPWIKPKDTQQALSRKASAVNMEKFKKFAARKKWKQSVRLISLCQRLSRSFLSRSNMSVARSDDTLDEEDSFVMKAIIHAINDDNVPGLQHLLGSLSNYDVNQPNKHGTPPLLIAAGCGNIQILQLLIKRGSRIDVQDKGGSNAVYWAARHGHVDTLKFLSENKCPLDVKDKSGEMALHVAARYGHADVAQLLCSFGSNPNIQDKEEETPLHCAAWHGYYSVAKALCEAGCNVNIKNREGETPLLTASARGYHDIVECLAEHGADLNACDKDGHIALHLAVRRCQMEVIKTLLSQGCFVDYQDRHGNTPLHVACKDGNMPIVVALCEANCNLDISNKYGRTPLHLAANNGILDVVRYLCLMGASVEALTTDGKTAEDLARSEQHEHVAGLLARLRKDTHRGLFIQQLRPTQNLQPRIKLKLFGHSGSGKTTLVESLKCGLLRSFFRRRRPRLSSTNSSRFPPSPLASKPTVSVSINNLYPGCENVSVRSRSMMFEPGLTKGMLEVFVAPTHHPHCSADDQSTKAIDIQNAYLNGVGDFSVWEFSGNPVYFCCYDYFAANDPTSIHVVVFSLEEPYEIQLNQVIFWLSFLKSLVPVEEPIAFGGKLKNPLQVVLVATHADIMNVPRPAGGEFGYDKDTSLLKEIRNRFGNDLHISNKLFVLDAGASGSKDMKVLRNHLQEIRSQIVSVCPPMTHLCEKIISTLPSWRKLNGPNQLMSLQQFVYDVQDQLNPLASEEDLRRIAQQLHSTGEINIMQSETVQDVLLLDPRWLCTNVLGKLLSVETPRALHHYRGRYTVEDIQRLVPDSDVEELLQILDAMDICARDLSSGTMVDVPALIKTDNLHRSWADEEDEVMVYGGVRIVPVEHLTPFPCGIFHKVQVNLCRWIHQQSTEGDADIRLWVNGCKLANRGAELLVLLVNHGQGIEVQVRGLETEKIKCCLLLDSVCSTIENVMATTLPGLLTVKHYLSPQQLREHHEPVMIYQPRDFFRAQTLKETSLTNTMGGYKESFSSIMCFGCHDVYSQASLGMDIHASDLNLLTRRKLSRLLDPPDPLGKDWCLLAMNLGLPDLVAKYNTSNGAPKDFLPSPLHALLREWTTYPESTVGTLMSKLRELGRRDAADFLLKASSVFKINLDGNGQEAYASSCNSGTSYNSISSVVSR
UniProt P22607, 23-806: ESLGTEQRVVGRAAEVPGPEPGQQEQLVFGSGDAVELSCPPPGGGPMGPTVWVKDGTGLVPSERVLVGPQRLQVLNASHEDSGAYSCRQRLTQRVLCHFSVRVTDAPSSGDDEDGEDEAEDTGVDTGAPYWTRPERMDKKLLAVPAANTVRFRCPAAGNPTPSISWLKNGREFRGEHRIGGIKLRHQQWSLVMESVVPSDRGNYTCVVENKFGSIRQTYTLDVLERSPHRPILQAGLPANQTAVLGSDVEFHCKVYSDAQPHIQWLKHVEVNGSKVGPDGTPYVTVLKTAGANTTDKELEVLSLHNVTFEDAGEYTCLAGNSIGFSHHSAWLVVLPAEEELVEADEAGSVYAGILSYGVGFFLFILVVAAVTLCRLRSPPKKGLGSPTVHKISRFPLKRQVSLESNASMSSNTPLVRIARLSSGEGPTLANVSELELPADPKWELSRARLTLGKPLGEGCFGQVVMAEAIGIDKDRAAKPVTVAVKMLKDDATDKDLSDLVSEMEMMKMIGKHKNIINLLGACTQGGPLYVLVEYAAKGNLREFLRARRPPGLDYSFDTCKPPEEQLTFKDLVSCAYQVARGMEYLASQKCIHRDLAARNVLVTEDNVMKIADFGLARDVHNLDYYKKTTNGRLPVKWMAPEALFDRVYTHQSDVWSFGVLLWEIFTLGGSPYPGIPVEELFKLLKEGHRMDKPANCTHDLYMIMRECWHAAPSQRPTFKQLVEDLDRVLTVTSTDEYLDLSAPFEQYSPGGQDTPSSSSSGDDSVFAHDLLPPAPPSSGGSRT
UniProt Q8IVH8: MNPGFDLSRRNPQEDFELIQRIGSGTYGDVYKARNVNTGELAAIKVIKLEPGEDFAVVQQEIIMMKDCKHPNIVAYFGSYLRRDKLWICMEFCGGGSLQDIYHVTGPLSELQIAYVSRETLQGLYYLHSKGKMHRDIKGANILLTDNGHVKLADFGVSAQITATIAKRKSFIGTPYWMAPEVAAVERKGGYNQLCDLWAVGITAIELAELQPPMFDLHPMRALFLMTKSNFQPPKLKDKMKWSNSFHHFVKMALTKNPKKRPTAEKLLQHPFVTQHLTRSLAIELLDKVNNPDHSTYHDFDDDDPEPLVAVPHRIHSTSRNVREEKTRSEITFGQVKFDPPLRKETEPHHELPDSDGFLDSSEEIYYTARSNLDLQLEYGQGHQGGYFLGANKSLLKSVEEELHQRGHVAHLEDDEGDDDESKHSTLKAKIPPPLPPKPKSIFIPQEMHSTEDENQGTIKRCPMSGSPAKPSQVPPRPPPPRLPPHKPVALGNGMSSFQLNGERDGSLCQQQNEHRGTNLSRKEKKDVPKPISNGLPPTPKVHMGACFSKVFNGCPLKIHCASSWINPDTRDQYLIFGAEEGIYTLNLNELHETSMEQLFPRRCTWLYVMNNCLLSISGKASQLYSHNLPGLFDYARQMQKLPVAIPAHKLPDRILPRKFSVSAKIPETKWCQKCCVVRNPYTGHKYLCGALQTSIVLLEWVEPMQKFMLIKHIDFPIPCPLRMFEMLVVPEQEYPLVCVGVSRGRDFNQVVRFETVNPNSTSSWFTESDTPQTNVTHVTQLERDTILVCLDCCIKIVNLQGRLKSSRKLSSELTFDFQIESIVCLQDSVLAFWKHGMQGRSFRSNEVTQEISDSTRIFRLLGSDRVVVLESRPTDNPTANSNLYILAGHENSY
UniProt Q14164: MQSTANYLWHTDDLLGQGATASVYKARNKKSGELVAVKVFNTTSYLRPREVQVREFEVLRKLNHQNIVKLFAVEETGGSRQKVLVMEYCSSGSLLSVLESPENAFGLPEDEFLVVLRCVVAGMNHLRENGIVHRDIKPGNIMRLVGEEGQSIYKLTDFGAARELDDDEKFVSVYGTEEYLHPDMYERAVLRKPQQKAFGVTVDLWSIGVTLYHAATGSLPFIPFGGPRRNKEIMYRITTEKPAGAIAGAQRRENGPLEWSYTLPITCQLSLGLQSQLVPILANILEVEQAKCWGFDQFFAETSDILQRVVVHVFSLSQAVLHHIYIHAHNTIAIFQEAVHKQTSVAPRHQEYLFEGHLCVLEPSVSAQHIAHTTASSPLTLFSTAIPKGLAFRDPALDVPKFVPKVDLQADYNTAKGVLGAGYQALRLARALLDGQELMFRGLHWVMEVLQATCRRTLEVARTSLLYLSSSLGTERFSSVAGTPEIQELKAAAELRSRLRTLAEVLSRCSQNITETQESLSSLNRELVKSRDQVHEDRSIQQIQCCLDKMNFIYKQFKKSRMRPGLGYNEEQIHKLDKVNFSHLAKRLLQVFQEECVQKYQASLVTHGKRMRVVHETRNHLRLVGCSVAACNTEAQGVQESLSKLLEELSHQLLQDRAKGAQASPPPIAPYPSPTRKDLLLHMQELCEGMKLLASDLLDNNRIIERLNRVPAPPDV
UniProt Q6P3R8: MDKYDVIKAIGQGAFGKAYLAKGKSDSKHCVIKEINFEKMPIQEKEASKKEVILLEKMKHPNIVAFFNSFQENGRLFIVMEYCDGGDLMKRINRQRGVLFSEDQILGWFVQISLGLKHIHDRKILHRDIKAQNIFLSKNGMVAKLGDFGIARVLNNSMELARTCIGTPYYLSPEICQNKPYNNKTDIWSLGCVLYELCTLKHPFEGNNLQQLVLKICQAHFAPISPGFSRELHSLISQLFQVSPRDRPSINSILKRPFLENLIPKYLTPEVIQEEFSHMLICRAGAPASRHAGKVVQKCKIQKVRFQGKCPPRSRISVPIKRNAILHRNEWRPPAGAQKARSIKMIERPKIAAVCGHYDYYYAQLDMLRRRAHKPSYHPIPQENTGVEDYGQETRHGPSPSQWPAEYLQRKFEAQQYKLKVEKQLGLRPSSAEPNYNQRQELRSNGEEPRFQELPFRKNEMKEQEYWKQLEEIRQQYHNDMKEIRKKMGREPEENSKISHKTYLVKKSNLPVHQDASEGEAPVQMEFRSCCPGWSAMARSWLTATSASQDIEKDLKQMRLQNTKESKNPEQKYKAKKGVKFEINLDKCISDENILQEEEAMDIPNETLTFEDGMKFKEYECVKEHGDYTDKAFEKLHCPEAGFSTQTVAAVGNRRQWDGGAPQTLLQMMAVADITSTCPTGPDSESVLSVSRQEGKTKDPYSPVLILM
UniProt Q05655: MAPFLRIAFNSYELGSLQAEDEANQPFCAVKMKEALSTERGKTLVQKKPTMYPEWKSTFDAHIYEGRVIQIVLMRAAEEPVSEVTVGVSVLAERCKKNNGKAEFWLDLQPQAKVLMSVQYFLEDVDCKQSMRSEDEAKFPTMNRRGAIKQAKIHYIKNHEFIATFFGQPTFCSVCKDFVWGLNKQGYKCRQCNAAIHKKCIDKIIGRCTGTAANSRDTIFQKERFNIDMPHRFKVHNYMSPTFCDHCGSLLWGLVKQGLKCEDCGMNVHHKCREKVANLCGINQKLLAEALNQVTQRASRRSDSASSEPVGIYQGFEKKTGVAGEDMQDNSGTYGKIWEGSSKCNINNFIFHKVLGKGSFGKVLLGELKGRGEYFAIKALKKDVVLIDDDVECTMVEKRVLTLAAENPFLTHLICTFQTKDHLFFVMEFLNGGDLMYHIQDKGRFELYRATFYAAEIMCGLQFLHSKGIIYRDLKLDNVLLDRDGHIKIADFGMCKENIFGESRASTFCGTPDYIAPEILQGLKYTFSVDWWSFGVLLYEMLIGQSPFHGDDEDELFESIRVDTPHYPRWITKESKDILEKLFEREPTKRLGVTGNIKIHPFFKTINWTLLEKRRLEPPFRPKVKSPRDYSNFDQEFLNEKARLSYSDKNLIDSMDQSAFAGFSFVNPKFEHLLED
UniProt Q13237: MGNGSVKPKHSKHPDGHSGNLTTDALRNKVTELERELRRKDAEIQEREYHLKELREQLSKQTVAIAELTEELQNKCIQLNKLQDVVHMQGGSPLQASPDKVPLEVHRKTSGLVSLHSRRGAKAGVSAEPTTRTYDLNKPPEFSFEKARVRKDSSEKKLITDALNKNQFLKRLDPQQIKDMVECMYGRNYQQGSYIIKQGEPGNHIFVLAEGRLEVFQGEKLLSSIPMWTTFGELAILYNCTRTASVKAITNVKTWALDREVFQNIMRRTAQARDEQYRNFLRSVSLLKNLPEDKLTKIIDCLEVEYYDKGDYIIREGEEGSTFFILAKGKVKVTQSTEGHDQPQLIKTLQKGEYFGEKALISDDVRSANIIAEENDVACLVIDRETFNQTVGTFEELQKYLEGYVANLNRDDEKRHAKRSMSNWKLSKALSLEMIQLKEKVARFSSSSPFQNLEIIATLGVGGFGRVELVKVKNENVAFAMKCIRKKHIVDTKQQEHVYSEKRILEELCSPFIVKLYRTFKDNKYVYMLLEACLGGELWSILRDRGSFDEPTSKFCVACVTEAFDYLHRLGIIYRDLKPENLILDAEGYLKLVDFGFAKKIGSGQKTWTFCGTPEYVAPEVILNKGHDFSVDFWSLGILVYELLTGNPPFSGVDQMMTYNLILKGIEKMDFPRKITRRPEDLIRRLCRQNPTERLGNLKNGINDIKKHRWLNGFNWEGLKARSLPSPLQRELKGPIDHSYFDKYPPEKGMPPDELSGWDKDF

BMX/ETK = target: T2, BMX/ETK (Homo sapiens, UniProt P51813); experiment: HotSpot kinase assay
T2 construct: purchased Reaction Biology Corporation

c-MER = target: T3, c-MER (Homo sapiens, UniProt Q12866); experiment: HotSpot kinase assay
T3 construct: purchased Reaction Biology Corporation

CAMK1d = target: T4, CAMK1d (Homo sapiens, UniProt Q8IU85); experiment: HotSpot kinase assay
T4 construct: purchased Reaction Biology Corporation

CDK14/cyclin Y (PFTK1) = target: T5, CDK14/cyclin Y (PFTK1) (Homo sapiens, UniProt O94921); experiment: HotSpot kinase assay
T5 construct: purchased Reaction Biology Corporation

CDK18/cyclin Y (PCTK3) = target: T6, CDK18/cyclin Y (PCTK3) (Homo sapiens, UniProt Q07002); experiment: HotSpot kinase assay
T6 construct: purchased Reaction Biology Corporation

DAPK1 = target: T7, DAPK1 (Homo sapiens, UniProt P53355); experiment: HotSpot kinase assay
T7 construct: purchased Reaction Biology Corporation

FGFR3 = target: T8, FGFR3 (Homo sapiens, UniProt P22607); experiment: HotSpot kinase assay
T8 construct: purchased Reaction Biology Corporation

GLK/MAP4K3 = target: T9, GLK/MAP4K3 (Homo sapiens, UniProt Q8IVH8); experiment: HotSpot kinase assay
T9 construct: purchased Reaction Biology Corporation

HIPK2 = target: T10, HIPK2 (Homo sapiens, UniProt Q9H2X6); experiment: HotSpot kinase assay
T10 construct: purchased Reaction Biology Corporation

IKKe/IKBKE = target: T11, IKKe/IKBKE (Homo sapiens, UniProt Q14164); experiment: HotSpot kinase assay
T11 construct: purchased Reaction Biology Corporation

ITK = target: T12, ITK (Homo sapiens, UniProt Q08881); experiment: HotSpot kinase assay
T12 construct: purchased Reaction Biology Corporation

JNK1 = target: T13, JNK1 (Homo sapiens, UniProt P45983); experiment: HotSpot kinase assay
T13 construct: purchased Reaction Biology Corporation

MAPKAPK5/PRAK = target: T14, MAPKAPK5/PRAK (Homo sapiens, UniProt Q8IW41); experiment: HotSpot kinase assay
T14 construct: purchased Reaction Biology Corporation

MLCK2/MYLK2 = target: T15, MLCK2/MYLK2 (Homo sapiens, UniProt Q9H1R3); experiment: HotSpot kinase assay
T15 construct: purchased Reaction Biology Corporation

MNK1 = target: T16, MNK1 (Homo sapiens, UniProt Q9BUB5); experiment: HotSpot kinase assay
T16 construct: purchased Reaction Biology Corporation

MRCKa/CDC42BPA = target: T17, MRCKa/CDC42BPA (Homo sapiens, UniProt Q5VT25); experiment: HotSpot kinase assay
T17 construct: purchased Reaction Biology Corporation

MST2/STK3 = target: T18, MST2/STK3 (Homo sapiens, UniProt Q13188); experiment: HotSpot kinase assay
T18 construct: purchased Reaction Biology Corporation

MYLK4 = target: T19, MYLK4 (Homo sapiens, UniProt Q86YV6); experiment: HotSpot kinase assay
T19 construct: purchased Reaction Biology Corporation

MYO3A = target: T20, MYO3A (Homo sapiens, UniProt Q8NEV4); experiment: HotSpot kinase assay
T20 construct: purchased Reaction Biology Corporation

NEK5 = target: T21, NEK5 (Homo sapiens, UniProt Q6P3R8); experiment: HotSpot kinase assay
T21 construct: purchased Reaction Biology Corporation

p70S6Kb/RPS6KB2 = target: T22, p70S6Kb/RPS6KB2 (Homo sapiens, UniProt Q9UBS0); experiment: HotSpot kinase assay
T22 construct: purchased Reaction Biology Corporation

PAK3 = target: T23, PAK3 (Homo sapiens, UniProt O75914); experiment: HotSpot kinase assay
T23 construct: purchased Reaction Biology Corporation

PAK4 = target: T24, PAK4 (Homo sapiens, UniProt O96013); experiment: HotSpot kinase assay
T24 construct: purchased Reaction Biology Corporation

PDGFRb = target: T25, PDGFRb (Homo sapiens, UniProt P09619); experiment: HotSpot kinase assay
T25 construct: purchased Reaction Biology Corporation

PKCd = target: T26, PKCd (Homo sapiens, UniProt Q05655)
T26 construct: purchased Reaction Biology Corporation

PKCIOTA = target: T27, PKCIOTA (Homo sapiens, UniProt P41743); experiment: HotSpot kinase assay
T27 construct: purchased Reaction Biology Corporation

PKG1a = target: T28, PKG1a (Homo sapiens, UniProt Q13976); experiment: HotSpot kinase assay
T28 construct: purchased Reaction Biology Corporation

PKG2/PRKG2 = target: T29, PKG2/PRKG2 (Homo sapiens, UniProt Q13237); experiment: HotSpot kinase assay
T29 construct: purchased Reaction Biology Corporation

PYK2 = target: T30, PYK2 (Homo sapiens, UniProt Q14289); experiment: HotSpot kinase assay
T30 construct: purchased Reaction Biology Corporation

SGK1 = target: T31, SGK1 (Homo sapiens, UniProt O00141); experiment: HotSpot kinase assay
T31 construct: purchased Reaction Biology Corporation

SIK1 = target: T32, SIK1 (Homo sapiens, UniProt P57059); experiment: HotSpot kinase assay
T32 construct: purchased Reaction Biology Corporation

STK39/STLK3 = target: T33, STK39/STLK3 (Homo sapiens, UniProt Q9UEW8); experiment: HotSpot kinase assay
T33 construct: purchased Reaction Biology Corporation

TAOK1 = target: T34, TAOK1 (Homo sapiens, UniProt Q7L7X3); experiment: HotSpot kinase assay
T34 construct: purchased Reaction Biology Corporation

TAOK2/TAO1 = target: T35, TAOK2/TAO1 (Homo sapiens, UniProt Q9UL54); experiment: HotSpot kinase assay
T35 construct: purchased Reaction Biology Corporation

TRKB = target: T36, TRKB (Homo sapiens, UniProt Q16620); experiment: HotSpot kinase assay
T36 construct: purchased Reaction Biology Corporation

TTBK2 = target: T37, TTBK2 (Homo sapiens, UniProt Q6IQ55); experiment: HotSpot kinase assay
T37 construct: purchased Reaction Biology Corporation

TYK2 = target: T38, TYK2 (Homo sapiens, UniProt P29597); experiment: HotSpot kinase assay
T38 construct: purchased Reaction Biology Corporation

WNK2 = target: T39, WNK2 (Homo sapiens, UniProt Q9Y3S1); experiment: HotSpot kinase assay
T39 construct: purchased Reaction Biology Corporation

YES/YES1 = target: T40, YES/YES1 (Homo sapiens, UniProt P07947); experiment: HotSpot kinase assay
T40 construct: purchased Reaction Biology Corporation

AMPK(A2/B2/G2) = target: T41, AMPK(A2/B2/G2) (Homo sapiens, UniProt P54646); experiment: HotSpot kinase assay
T41 construct: purchased Reaction Biology Corporation

DNA-PK = target: T42, DNA-PK (Homo sapiens, UniProt P78527); experiment: HotSpot kinase assay
T42 construct: purchased Reaction Biology Corporation

PDK2/PDHK2 = target: T43, PDK2/PDHK2 (Homo sapiens, UniProt Q15119); experiment: HotSpot kinase assay
T43 construct: purchased Reaction Biology Corporation

With `CO[C@@H]1[C@H](N(C)C(=O)CCC(=O)NCc2cn(CCCS(=O)(=O)O)nn2)C[C@H]2O[C@]1(C)n1c3ccccc3c3c4c(c5c6ccccc6n2c5c31)C(=O)NC4` [CIMSS] the “% Enzyme Activity (relative to DMSO controls)” value (ABL1) was 4.92%, the “% Enzyme Activity (relative to DMSO controls)” value (BMX/ETK) was 1.32% and the “% Enzyme Activity (relative to DMSO controls)” value (c-MER) was 2.15%. The “% Enzyme Activity (relative to DMSO controls)” value (CAMK1d) was 19.69%, the “% Enzyme Activity (relative to DMSO controls)” value (CDK14/cyclin Y (PFTK1)) was 72.89% and the “% Enzyme Activity (relative to DMSO controls)” value (CDK18/cyclin Y (PCTK3)) was 36.57%. For the same compound, the “% Enzyme Activity (relative to DMSO controls)” value (DAPK1) was 13.55%, the “% Enzyme Activity (relative to DMSO controls)” value (FGFR3) was 4.46% and the “% Enzyme Activity (relative to DMSO controls)” value (GLK/MAP4K3) was 0.93%. For the same compound, the “% Enzyme Activity (relative to DMSO controls)” value (HIPK2) was 17.11%, the “% Enzyme Activity (relative to DMSO controls)” value (IKKe/IKBKE) was 1.28% and the “% Enzyme Activity (relative to DMSO controls)” value (ITK) was 3.38%. The “% Enzyme Activity (relative to DMSO controls)” value (JNK1) was 24.80%, the “% Enzyme Activity (relative to DMSO controls)” value (MAPKAPK5/PRAK) was 84.10% and the “% Enzyme Activity (relative to DMSO controls)” value (MLCK2/MYLK2) was 24.42%. For the same compound, the “% Enzyme Activity (relative to DMSO controls)” value (MNK1) was 41.13%, the “% Enzyme Activity (relative to DMSO controls)” value (MRCKa/CDC42BPA) was 68.39% and the “% Enzyme Activity (relative to DMSO controls)” value (MST2/STK3) was 3.40%. The “% Enzyme Activity (relative to DMSO controls)” value (MYLK4) was 5.38%, the “% Enzyme Activity (relative to DMSO controls)” value (MYO3A) was 5.96% and the “% Enzyme Activity (relative to DMSO controls)” value (NEK5) was 6.22%. The “% Enzyme Activity (relative to DMSO controls)” value (p70S6Kb/RPS6KB2) was 3.26%, the “% Enzyme Activity (relative to DMSO controls)” value (PAK3) was 6.27% and the “% Enzyme Activity (relative to DMSO controls)” value (PAK4) was 7.24%. The “% Enzyme Activity (relative to DMSO controls)” value (PDGFRb) was 1.79%, the “% Enzyme Activity (relative to DMSO controls)” value (PKCd) was 7.89% and the “% Enzyme Activity (relative to DMSO controls)” value (PKCIOTA) was 30.93%. For the same compound, the “% Enzyme Activity (relative to DMSO controls)” value (PKG1a) was 6.41%, the “% Enzyme Activity (relative to DMSO controls)” value (PKG2/PRKG2) was 1.33% and the “% Enzyme Activity (relative to DMSO controls)” value (PYK2) was 2.27%. For the same compound, the “% Enzyme Activity (relative to DMSO controls)” value (SGK1) was 12.71%, the “% Enzyme Activity (relative to DMSO controls)” value (SIK1) was 0.64% and the “% Enzyme Activity (relative to DMSO controls)” value (STK39/STLK3) was 18.27%. For the same compound, the “% Enzyme Activity (relative to DMSO controls)” value (TAOK1) was 6.33%, the “% Enzyme Activity (relative to DMSO controls)” value (TAOK2/TAO1) was 35.06% and the “% Enzyme Activity (relative to DMSO controls)” value (TRKB) was 1.73%. The “% Enzyme Activity (relative to DMSO controls)” value (TTBK2) was 94.91%, the “% Enzyme Activity (relative to DMSO controls)” value (TYK2) was 5.86% and the “% Enzyme Activity (relative to DMSO controls)” value (WNK2) was 69.29%. The “% Enzyme Activity (relative to DMSO controls)” value (YES/YES1) was 1.32%, the “% Enzyme Activity (relative to DMSO controls)” value (AMPK(A2/B2/G2)) was 0.63% and the “% Enzyme Activity (relative to DMSO controls)” value (DNA-PK) was 95.76%. The “% Enzyme Activity (relative to DMSO controls)” value (PDK2/PDHK2) was 93.95%.
